Compound activity (PubChem BioAssay)
Compounds with a hit are over-represented: about 3.7% of the library has one in this group of screens.
Nrf2 ARE act = activators of Nrf2 (ARE) signaling; AREc32 ARE-luciferase reporter (MCF7-derived line), luminescence, 24 h; Potency, µM (top dose mostly 46.1 µM), for the others: at the highest dose activation, most hits filed as activators; actives 0.31% (n = 410,000); also: potency is read from the fitted curve at half-maximal effect; % of control where 0% means no effect; nearly all actives have a fitted effect of over 65% in size
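ARE activation measured as luciferase luminescence (Steady-Glo, 30 min RT) in AREc32_Fluc cells after 24 hr compound exposure at 37 deg C, 5% CO2; cells seeded overnight at 1000/well in OPTI-MEM, 5% FBS.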
p53 reactivator = re-activators of mutant p53; AID 504706; actives 0.063% (n = 320,000); Potency, µM (highest dose often 92.2 µM), inactives show at the highest dose activity change, positive = activation, most hits filed as activators; H1299 p53-A138V BP100-luciferase reporter, luminescence, 24 h; also: potency is read from the fitted curve at half-maximal effect; % of control where 0% means no effect; nearly all actives have a fitted effect of over 45% in size
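p53-null H1299 cells stably carrying temperature-sensitive p53-A138V and a BP100-luciferase reporter were pinned with compounds (4-point, 1:5 series) and held 24 hrs at 37 deg C. Luminescence was read 10 min after detection reagent.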
miR-21 FLuc = raises the signal of a miR-21 reporter; HeLa miR-21 FLuc reporter, luciferase, 48 h; Potency, µM (top dose mostly 38.3 µM), for inactives: at the highest dose reporter change, positive = more light; AID 2288; 340,000 tested, under 10 active; active = well fitted rising curve with a large enough effect; inconclusive = small, poorly fitted or top-dose-only effect; inactive = no such curve, though single readings can be large or run the other way;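 note: % of control where 0% means no effect; miR-21 action dims this reporter so a rising signal means less miR-21 action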
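Luminescence from a firefly luciferase reporter carrying a miR-21 binding site downstream, stably expressed under a CMV promoter in HeLa cells that make miR-21 endogenously, reports miRNA modulation after 48 h compound exposure up to approximately 40uM final.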
A549 tox = A549 cytotoxicity, counter-screen for Nrf2 inhibitors | A549 ARE-Fluc cells, CellTiter-Fluor viability, 18-24 h | Potency, µM (titrated, usually from 46 µM), inactives show top-dose activity change, negative = cytotoxicity, hits mostly inhibitors | actives 0.16% (n = 390,000) | AID 504648; also: potency is read from the fitted curve at half-maximal effect; % is scaled to controls: 0 for no effect and ±100 for the full control effect
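A549 ARE_Fluc cells in 5% FBS OPTI-MEM were exposed to compounds in concentration-response for 18-24 h at 37 deg C. Viability was read by CellTiter-Fluor fluorescence (Ex 405/Em 525) after 30 min, before the luciferase read.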
Nrf2 inh = Nrf2 pathway inhibition. A549 ARE-Fluc reporter, luciferase luminescence, 18-24 h. actives 2.1% (n = 360,000). Potency, µM (series often up to 46 µM), for the others: at the highest dose activity change, negative = inhibition, usual class: inhibitors; also: potency is read from the fitted curve at half-maximal effect; % is scaled to controls: 0 for no effect and ±100 for the full control effect; nearly all actives have a fitted effect of over 60% in size
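Two sequential reads on A549 ARE_Fluc cells exposed to compound for 18-24 h: a CellTiter-Fluor fluorescence read for viability, then a luciferase luminescence read for Nrf2/ARE activity.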
ClpP mod = qHTS Assay for Activators of ClpP; ATP-dependent Clp protease proteolytic subunit (Bacillus subtilis (strain 168)), P80244; purified B. subtilis ClpP, FRET peptide cleavage, 20 min; Potency, µM (series often up to 57.5 µM), inactives show at the top dose activity change, negative = active; actives 1.9% (n = 340,000); AID 651965, 2013; active = well fitted falling curve with a large enough effect; inconclusive = small, poorly fitted or top-dose-only effect; inactive = no such curve, though single readings can be large or run the other way; also: potency is read from the fitted curve at half-maximal effect; the source files actives as falling curves though it sought activators and does not explain the sign; nearly all actives have a fitted effect of over 65% in size
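Purified B. subtilis ClpP, 10 microg/mL final in Tris/HCl pH8 with KCl, BSA, glycerol and Tween-20, cleaved an Abz/nitrotyrosine-quenched decapeptide. Fluorescence (ex 320, em 430) was read at 0 and 20 min at room temperature. Delta was normalized to 5.8 microM ADEP and DMSO/no-enzyme controls.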
* = called active by the depositor; ? = inconclusive; / = no result given; ! = not active in a repeat; [ ] = dose if it differs, or a comment. Unless noted, calls follow the shape of the dose curve; as a rule, active = well fitted curve in the direction sought with a large enough effect; inconclusive = small, poorly fitted or top-dose-only effect, or another doubt; inactive = no such curve, though single readings can be large; an effect the other way counts as inactive or inconclusive.

SMILES	Nrf2 ARE act	p53 reactivator	miR-21 FLuc	A549 tox	Nrf2 inh	ClpP mod
COc1ccc(C23CC4CC(CC(C4)C2)C3)cc1C(=O)NCCN(C)C	-4%	/	28%	1%	-13%	-4%
CN(C)CCNC(=O)c1cccc2ccc(-c3ccc(-c4ccccc4)cc3)nc12	4.5µM*	/	/	?	-16%	?
CN(C)CCNC(=O)c1cccc2nc3cccc(F)c3nc12	0%	/	/	10µM*	4.6µM*	-4%
COc1ccc(OC)c2nc3c(C(=O)NCCN(C)C)cccc3nc12	0%	/	/	16µM*	5.8µM*	-1%
COc1ccc2c(=O)cc(C(=O)O)oc2c1	-1%	-2%	-1%	-7%	-2%	/
COc1ccc2oc(C(=O)Nc3nc4ccc(S(C)(=O)=O)cc4s3)c(C)c2c1	0%	7%	/	-4%	-5%	16µM*
Cc1ccc2oc(C(=O)Nc3nnc(C)s3)c(C)c2c1	3%	28%	-36%	-17%	?	-1%
COc1ccc2c(C)c(C(=O)O)oc2c1	0%	0%	-4%	8%	-11%	25µM*
Cc1c(C(=O)Nc2nnc(C3CC3)s2)oc2ccccc12	8%	5µM*	/	-5%	?	-5%
COc1cc(OC)cc(C(=O)Nc2nc3ccc(S(C)(=O)=O)cc3s2)c1	0%	6%	-29%	-4%	5%	/
COc1ccc2oc(C(=O)Nc3nnc(C)s3)c(C)c2c1	0%	?	/	4%	-22%	28µM*
CC1(C)N=C(c2ccc(F)cc2)C(=O)N1CC(=O)Nc1ccccc1Cl	0%	/	-2%	-12%	?	0%
CC(C)c1cnc2c(c1SCC(=O)Nc1cccc([N+](=O)[O-])c1)c(=O)n(C)c(=O)n2C	12%	/	13%	2%	/	1%
O=c1cc(CSc2n[nH]c(-c3ccccc3)n2)[nH]c2ccccc12	3%	/	0%	14%	/	0%
COc1cccc(CNC(=O)CN2C(=O)CSc3c2c(C)nn3-c2ccccc2)c1	1%	/	3%	-3%	-20%	-1%
COc1ccc2oc(C(=O)Nc3nc(-c4ccccn4)cs3)c(C)c2c1	3%	12%	/	-16%	-18%	-29%
COc1ccc2oc(C(=O)NC(C)c3ccccn3)c(C)c2c1 (stereo not given)	5%	5%	/	9%	15%	25µM*
Cc1ccc(S(=O)(=O)c2cn(C)c3cc(N4CCN(C)CC4)c(F)cc3c2=O)cc1	0%	8%	0%	?	3%	25µM*!
Cn1cc(S(=O)(=O)c2ccccc2)c(=O)c2cc(F)c(N3CCOCC3)cc21	0%	2%	-9%	-7%	1%	28µM*
CCc1ccc(S(=O)(=O)c2cn(C)c3cc(N4CCN(CC)CC4)c(F)cc3c2=O)cc1	0%	/	0%	-7%	-3%	11µM*

Looked up above:
Under Nrf2 inh, COc1ccc(C23CC4CC(CC(C4)C2)C3)cc1C(=O)NCCN(C)C has -13%
Under Nrf2 ARE act, COc1ccc2c(=O)cc(C(=O)O)oc2c1 has -1%
Under Nrf2 ARE act, CN(C)CCNC(=O)c1cccc2ccc(-c3ccc(-c4ccccc4)cc3)nc12 has 4.5µM*

Continuation.
SMILES	Nrf2 ARE act	p53 reactivator	miR-21 FLuc	A549 tox	Nrf2 inh	ClpP mod
COc1ccc(C2=Nn3c(nnc3-c3ccccc3Cl)SC2)cc1OC1CCCC1	-1%	7%	/	-17%	16µM*	/
COc1nc(N(C)S(=O)(=O)c2ccc(C)cc2)nc(C)c1Br	-1%	5%	-2%	8%	4.1µM*	-2%
COC(=O)CN(c1nc(C)c(Br)c(OC)n1)S(=O)(=O)c1ccccc1	0%	/	-1%	1%	-3%	0%
Cc1ccc(-c2cc(-c3ccco3)c3c(N)c(C(=O)NN)oc3n2)cc1	5%	-2%	17%	-19%	8.2µM*	18%
CCC(CC)C(=O)N1CCc2cc(OC)c(OC)cc2C1COc1ccc(C(=O)OC)cc1 (stereo not given)	7%	/	1%	4%	/	-2%
CCOc1ccc(C(=O)Nc2ccc3oc(-c4ccc5ccccc5c4)nc3c2)cc1	0%	/	-13%	0%	14%	-14%
COc1ccc(-c2nnc(SCC(=O)N(Cc3ccccc3)C(C)(C)C)o2)cc1OC	-1%	-2%	?	-16%	23µM*	-6%
CCN(C(=O)CSc1nnc(-c2cc(OC)c(OC)c(OC)c2)o1)c1ccccc1	8%	/	6%	2%	-14%	-6%
CN1CCCCC1(C)C(=O)NCc1ccc(F)cc1 (stereo not given)	0%[9.22 µM]	/	/	/	/	0%
CCN1C(=O)c2cccc3c(S(=O)(=O)N(C(C)=O)c4ccc(OC(C)=O)cc4)ccc1c23	29%	-7%	/	-16%	26µM*	5%
CCN(c1ccccc1)c1nnc(NC(=O)Nc2ccc(Br)cc2)s1	4%	/	8%	-4%	?	0%
CCCN(C)CCCOc1cc2nc(N3CCCN(C)CC3)nc(NC3CCN(C)CC3)c2cc1OC	/	/	/	/	/	4%
COc1ccccc1-c1nn2c(-c3ccccc3Cl)nnc2s1	/	-3%	-10%	/	/	/
CCN(CC)c1ccc(-c2nn3c(-c4ccccc4OC)nnc3s2)cc1	4%	-56%	21%	?	9%	7.9µM*
CCC(=O)N1CCCc2cc(S(=O)(=O)N3CCC(C(=O)Nc4ccc(C#N)cc4)CC3)ccc21	0%	/	?	5%	/	-2%
CCOc1ccc(NC(=O)Cn2c(=O)n(Cc3nc(-c4ccccc4)no3)c(=O)c3cc4c(cc32)OCO4)cc1	0%	/	5%	2%	15%	25µM*
COc1ccc(NC(=O)Cn2c(=O)n(Cc3nc(C)no3)c(=O)c3cc4c(cc32)OCO4)cc1	1%	/	1%	0%	?	-11%
Cc1noc(Cn2c(=O)c3cc4c(cc3n(CC(=O)Nc3ccccc3Br)c2=O)OCO4)n1	-1%	/	1%	8%	-18%	11µM*
Cc1ccc(S(=O)(=O)N2CCN(c3nc(N(C)c4cc(Cl)ccc4O)nc4ccccc34)CC2)cc1	/	/	/	/	/	-2%
Cc1ccc(N=c2oc3cc(O)ccc3cc2C(N)=O)cc1	0%	?	24%	2%	21µM*	25µM*
COc1ccc(C2CC(c3ccccc3)Oc3cc4c(cc32)OCO4)cc1 (stereo not given)	/	/	/	6%	?	/
Cc1ccc(C(=O)NCCSc2ccc(Cl)cc2)cc1S(=O)(=O)Nc1ccccc1	3%	-10%	22%	?	15µM*	-1%
Cc1ccc(SCCNC(=O)c2ccc(C)c(S(=O)(=O)Nc3cccc(C)c3)c2)cc1	3%	-8%	19%	?	?	1%
Cc1ccc(NS(=O)(=O)c2cc(C(=O)NCCSc3ccc(C)cc3)ccc2C)cc1	0%	-4%	21%	-22%	23µM*	-1%
Cc1ccc(C)c(S(=O)(=O)N2CCN(C(=O)Cc3sc(C)nc3-c3ccc(F)cc3)CC2)c1	2%	/	/	-12%	?	1%

Entries of single compounds as entered above.
Shown for `Cc1ccc(NS(=O)(=O)c2cc(C(=O)NCCSc3ccc(C)cc3)ccc2C)cc1` = Nrf2 ARE act: 0%; p53 reactivator: -4%; miR-21 FLuc: 21%; A549 tox: -22%; Nrf2 inh: 23µM*; ClpP mod: -1%
Shown for `Cc1ccc(SCCNC(=O)c2ccc(C)c(S(=O)(=O)Nc3cccc(C)c3)c2)cc1` = Nrf2 ARE act: 3%; p53 reactivator: -8%; miR-21 FLuc: 19%; A549 tox: ?; Nrf2 inh: ?; ClpP mod: 1%
